Experimental data: patent publication US20220305115A1 (JANSSEN SCIENCES IRELAND UNLIMITED COMPANY, priority 2019, published 2022)

Columns and labels:
Format in all cases: cell-based
IL12p40 = test: PBMC cytokine profiling assay, IL12-p40 induction; settings: Homo sapiens, 24 h, read-out: IL12p40 AC50
Experimental: (§1) Compounds were dissolved and stored in DMSO (Sigma-Aldrich, St. Louis, Mo.) at 10 mM concentration.
(§2) Cryopreserved human PBMCs isolated from healthy donors were purchased from StemCell Technologies (Vancouver, Canada). Cell culture medium used was RPMI with L-Glutamine (Mediatech, Manassas, Va.) supplemented with 10% fetal bovine serum (Hyclone, GE Healthcare, Logan, Utah) and Penicillin-Streptomycin (Mediatech). Human TNFα, IL12p40, and IFNα2a 384-well Assay capture plates, standards, buffers and processing reagents were obtained from MesoScale Discovery Technologies (MSD; Rockville, Md.).
(§3) Cryopreserved human PBMCs (1×10e8 cells/ml) were thawed at 37° C. and resuspended in 25 mL warm cell culture medium. The cells were pelleted at 200×g (Beckman Avanti J-E) for 5 min and resuspended in 20 mL of fresh culture media. Cells were counted using a Cellometer (Nexcelcom Bioscience), adjusted to 2×10e6 cells, and incubated for 2 hours in an incubator set at 37° C., 5% CO2 to recover from cryopreservation. […]
(§4) Using a Biomek FX 384 well pipetting station (Beckman), conditioned culture medium (CCM) from the assay plate was transferred to MSD capture plates customized for each cytokine. […] MSD Read Buffer diluted to 2× in deionized water and 35 μL/well was added via Biomek FX instrument. The plates were read immediately in a MSD6000 reader. […]

IFNα = test: PBMC cytokine profiling assay, IFNα induction; settings: Homo sapiens, 24 h, read-out: IFNα AC50
Experimental: as §1, §2, §3, §4

TNFα = test: PBMC cytokine profiling assay, TNFα induction; settings: Homo sapiens, 24 h, read-out: TNFα AC50
Experimental: as §1, §2, §3, §4

CCCC[C@](C)(CO)Nc1nc(N)nc2cc(Cl)cnc12 [Compound 114, (R)-2-((2-amino-7-chloropyrido[3,2-d]pyrimidin-4-yl)amino)-2-methylhexan-1-ol]
AC50 (IL12p40): 200 nM | AC50 (IFNα): 34100 nM | AC50 (TNFα): 340 nM
